Results reported in patent US20210188969A1, “ANTIBODIES THAT BIND INTERLEUKIN-2 AND USES THEREOF” (published 2021).

Target: human IL-2 Rαβγ (trimeric IL-2 receptor) on cells (human) (UniProt P01589)

EC50 of IL-2-induced phosphorylation of STAT5a,b, NK-92 cells, IL-2 pre-complexed with 100 nM antibody: 0.9 nM
Substance: IL-2/MAB602 complex (from UniProt P60568)
